The target in the assay is T1, α1a adrenoreceptor (Homo sapiens, UniProt P35348).
T1 construct: expressed in transfected cells
T1 sequence (P35348 1-466): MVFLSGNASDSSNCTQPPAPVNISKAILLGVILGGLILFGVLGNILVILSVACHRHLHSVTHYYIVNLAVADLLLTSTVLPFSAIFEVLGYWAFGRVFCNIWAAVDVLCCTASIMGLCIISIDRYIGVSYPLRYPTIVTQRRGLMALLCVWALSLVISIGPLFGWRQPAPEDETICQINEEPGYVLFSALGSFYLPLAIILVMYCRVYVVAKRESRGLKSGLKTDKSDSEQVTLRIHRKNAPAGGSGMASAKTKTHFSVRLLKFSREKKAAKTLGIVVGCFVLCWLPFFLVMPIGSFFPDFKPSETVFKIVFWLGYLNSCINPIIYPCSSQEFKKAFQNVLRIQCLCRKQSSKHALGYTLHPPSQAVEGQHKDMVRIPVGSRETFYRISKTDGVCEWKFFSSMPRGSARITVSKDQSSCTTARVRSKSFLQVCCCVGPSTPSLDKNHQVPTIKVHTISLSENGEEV
Description: Competition binding, [3H]-prazosin, α1a CHO cell membranes. Particulars: read-out: Ki, a1a Binding (class symbol).

Where only a bound is given, the exact number is not on record here.

As a reminder, the Ki is a dissociation constant, usually derived from enzyme kinetics or from competition with a known ligand. As for (R)-PE sulfate, the Ki is above 100 µM.

For the origin of these results see patent US20090280160A1, “PHENYLEPHRINE PHARMACEUTICAL FORMULATIONS AND COMPOSITIONS FOR TRANSMUCOSAL ABSORPTION” (Schering-Plough Healthcare Products, Inc., priority 2007, published 2009).
